Assay results as given in patent US20230312472A1.
Some compounds may have been tested in ways that are not shown here.

Test: pH of the solid, 0.5 g dissolved in 50 mL ELGA water
Conditions: for pH of remifentanil hydrochloride: 0.5 g in 50 mL ELGA water; for pH: 0.5 g solid dissolved in 50 mL ELGA water, pH meter

CCC(=O)N(c1ccccc1)C1(C(=O)OC)CCN(CCC(=O)OC)CC1
pH of remifentanil hydrochloride (listed as Sample C5, hydrochloride): 5.98

CCC(=O)N(c1ccccc1)C1(C(=O)OC)CCN(CCC(=O)OC)CC1 [Example 6 Sample A2]
pH of remifentanil hydrochloride (hydrochloride): 4.22 | pH of remifentanil hydrochloride (listed as A2, hydrochloride): 4.22 | pH of remifentanil hydrochloride (listed as Sample A2, hydrochloride): 4.22

CCC(=O)N(c1ccccc1)C1(C(=O)OC)CCN(CCC(=O)OC)CC1 [Example 6 Sample A3]
pH of remifentanil hydrochloride (hydrochloride): 4.31 | pH of remifentanil hydrochloride (listed as A3, hydrochloride): 4.31 | pH of remifentanil hydrochloride (listed as Sample A3, hydrochloride): 4.31

CCC(=O)N(c1ccccc1)C1(C(=O)OC)CCN(CCC(=O)OC)CC1 [Example 6 Sample A4]
pH of remifentanil hydrochloride (hydrochloride): 4.21

CCC(=O)N(c1ccccc1)C1(C(=O)OC)CCN(CCC(=O)OC)CC1 [Example 6 Sample B2]
pH of remifentanil hydrochloride (hydrochloride): 5.55 | pH of remifentanil hydrochloride (listed as Sample B2, hydrochloride): 5.55 | pH (hydrochloride): 5.55

CCC(=O)N(c1ccccc1)C1(C(=O)OC)CCN(CCC(=O)OC)CC1 [Example 6 Sample B3]
pH of remifentanil hydrochloride (hydrochloride): 5.51 | pH of remifentanil hydrochloride (listed as Sample B3, hydrochloride): 5.51 | pH (hydrochloride): 5.51

CCC(=O)N(c1ccccc1)C1(C(=O)OC)CCN(CCC(=O)OC)CC1 [Example 6 Sample B4]
pH of remifentanil hydrochloride (hydrochloride): 5.62
